biological target: Estrogen receptor (Homo sapiens) (UniProt P03372); test: Relative Binding affinity to human ERalpha by competitive fluorometric binding assay relative to estradiol

By UniProt entry, the sequences of proteins in these tests, tags left out.
UniProt P03372, whole entry: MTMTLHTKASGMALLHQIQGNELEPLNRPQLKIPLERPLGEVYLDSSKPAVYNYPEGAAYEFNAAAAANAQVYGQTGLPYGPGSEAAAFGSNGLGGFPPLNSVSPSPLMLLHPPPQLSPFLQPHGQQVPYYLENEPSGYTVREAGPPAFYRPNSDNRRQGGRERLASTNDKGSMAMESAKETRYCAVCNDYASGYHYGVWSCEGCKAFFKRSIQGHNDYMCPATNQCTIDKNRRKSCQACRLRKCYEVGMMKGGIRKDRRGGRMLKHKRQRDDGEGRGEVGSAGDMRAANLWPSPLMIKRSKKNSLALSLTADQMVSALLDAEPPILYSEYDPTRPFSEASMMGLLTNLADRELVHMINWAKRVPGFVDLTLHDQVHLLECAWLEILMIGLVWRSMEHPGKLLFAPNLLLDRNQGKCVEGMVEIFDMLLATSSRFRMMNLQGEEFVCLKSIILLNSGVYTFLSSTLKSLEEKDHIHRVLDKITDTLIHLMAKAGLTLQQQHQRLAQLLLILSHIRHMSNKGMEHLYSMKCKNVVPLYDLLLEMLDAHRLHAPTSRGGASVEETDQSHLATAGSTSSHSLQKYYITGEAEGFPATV

Structure (SMILES)	RBA [%]
CCCCCCOC(=O)/C=C\C=C/[C@H](C)[C@H]1CC[C@]2(C)C[C@@H]3C(C)=CC(=O)[C@H]3/C(C=O)=C\C[C@@H]12	1.72
CC1=CC(=O)[C@H]2/C(C=O)=C\C[C@H]3[C@@H]([C@@H](C)/C=C\C=C/C(=O)OCCOCCOCCOC(=O)CC45CC6CC(CC(C6)C4)C5)CC[C@]3(C)C[C@H]12	0.59
CC(C)=C/C=C\[C@H](C)[C@H]1CC[C@]2(C)C[C@@H]3C(C)=CC(=O)[C@H]3/C(C=O)=C\C[C@@H]12	0.22

From ChEMBL document CHEMBL5042519, “Design and synthesis of marine sesterterpene analogues as novel estrogen receptor α degraders for breast cancer treatment” (Eur J Med Chem, 2022)
